Like-named read-outs stand apart in the source and are kept apart here.
Columns and labels:
Format in all cases: cell-based
[1] = test system: A. baumannii ATCC BAA-747; details: ATCC BAA-747
Experimental: (§1) The inoculum was prepared by making a direct suspension of isolated colonies (selected from an 18-24 hour Mueller-Hinton agar plate) adjusted to the 0.5 McFarland standard. […] The assays were performed in duplicate. […] Several of the compounds were subjected to multiple tests, and where this is the case, the MIC presented is the median value obtained. The MIC values are quoted in μg/mL.

[2] = test system: K. pneumoniae ATCC 13822
Experimental: as §1

[3] = test system: E. coli ATCC 25922
Experimental: as §1

[4] = test system: K. pneumoniae ATCC 13882
Experimental: (§2) MIC values (μg/mL) were determined by broth microdilution under CLSI conditions.

[5] = test system: E. coli ATCC 25922; remark: listed apart in the source
Experimental: as §2

[6] = test system: P. aeruginosa ATCC 27853
Experimental: as §1

[7] = cation-adjusted Mueller-Hinton Broth, 18-20 h, 35° C.

CC(C)C[C@@H]1NC(=O)[C@@H](Cc2ccccc2)NC(=O)[C@H](CCN)NC(=O)[C@@H](NC(=O)[C@H](CN)NC(=O)[C@@H](NC(=O)C[C@H](CN)c2cccc(Cl)c2)[C@@H](C)O)CCNC(=O)[C@H]([C@@H](C)O)NC(=O)[C@H](CCN)NC(=O)[C@H](CCN)NC1=O [Example 5, (S)-4-amino-3-(3- chlorophenyl)butanoyl- Thr-Dap-Cyclo[Dab- Dab-DPhe-Leu-Dab- Dab-Thr]]
0.125 µg/mL: MIC A. baumannii ATCC BAA-747 [1] | MIC K. pneumoniae ATCC 13822 ([2]; ATCC 13822) | MIC E. coli ATCC 25922 ([3]; ATCC 25922) | MIC K. pneumoniae ATCC 13882 [4] | MIC E. coli ATCC 25922 [5]

CC(C)C[C@@H]1NC(=O)[C@@H](Cc2ccccc2)NC(=O)[C@H](CCN)NC(=O)[C@@H](NC(=O)[C@H](CN)NC(=O)[C@@H](NC(=O)C[C@@H](CN)c2cccc(Cl)c2)[C@@H](C)O)CCNC(=O)[C@H]([C@@H](C)O)NC(=O)[C@H](CCN)NC(=O)[C@H](CCN)NC1=O [Example 6, (R)-4-amino-3-(3- chlorophenyl) butanoyl- Thr-Dap-Cyclo[Dab- Dab-DPhe-Leu-Dab- Dab-Thr]]
0.125 µg/mL: MIC K. pneumoniae ATCC 13822 ([2]; ATCC 13822) | MIC E. coli ATCC 25922 ([3]; ATCC 25922) | MIC P. aeruginosa ATCC 27853 ([6]; ATCC 27853)

CC[C@@H]1NC(=O)[C@@H](Cc2ccccc2)NC(=O)[C@H](CCN)NC(=O)[C@@H](NC(=O)[C@H](CN)NC(=O)[C@@H](NC(=O)C[C@H](CN)c2cccc(C(C)C)c2)[C@@H](C)O)CCNC(=O)[C@H]([C@@H](C)O)NC(=O)[C@H](CCN)NC(=O)[C@H](CCN)NC1=O [Example 17]
0.125 µg/mL: MIC K. pneumoniae ATCC 13822 [2, 7] | MIC E. coli ATCC 25922 [3, 7] | MIC P. aeruginosa ATCC 27853 [6, 7]

Source: patent US12528837B2, “Aryl substituted polymyxin derivatives” (priority 2018, dated 2026)
